Values quoted from earlier work as cited in US20180256623A1, “COMPOSITIONS AND METHOD FOR REGULATING ADIPOSE TISSUE LIPOLYSIS, INSULIN-RESISTANCE, AND HYPERGLYCEMIA” (University of Virginia Patent Foundation, priority 2015, published 2018).

Test system: 3T3-L1
Conditions: read-out: IC50 (3T3-L1); Table 3, cyclic amine-derived ureas; means of three experiments; Na = not active; cited from earlier work

SMILES | IC50
Cc1c(C(C)C)c(=O)on1C(=O)N1CCN(c2ccccc2Cl)CC1 | 31 nM
Cc1c(C(C)C)c(=O)on1C(=O)N1CCN(c2ncccn2)CC1 | 51 nM
